Experiments:
Format in all cases: cell-based
[1] = test system: human naive CD4+ CD45RA+ T cells; assay: Proliferation assay of human naive CD4+CD45RA+ T cells
Protocol: (§1) Isolation and stimulation of human naive CD4^+ CD45RA^+ T cells. Human peripheral blood mononucleated cells from buffy coats of different donors were obtained from the Stanford Blood Center under Stanford University Institutional Review Board approval. Buffy coats were separated into leukocytes using Ficoll-Paque Plus (GE Health Sciences). T cells were prepared using a RosetteSep Human CD4 T Cell Enrichment (Stem Cell Technologies) followed by a Naive CD4^+ T cell Isolation Kit along using LS MACS columns (Miltenyi Biotec). Negatively selected CD4+CD45RA+CD45RO-CD25-T cells were isolated at 95-99% purity as confirmed by flow cytometry using anti-CD4-FITC (OKT4; eBioscience) and anti-CD45RA-PE (HI100; eBioscience) Ab. CD4^+ CD45RA^+ T cells (5×10^3) were stimulated in 96-well U-bottom plates with equal numbers of Dynabeads CD3/28 T Cell Expander (Invitrogen) or plate-bound anti-CD3 at 1.0 μg/ml with mitomycin C (Sigma-Aldrich) inactivated APC (anti-CD3/APC). Rapamycin (Sigma-Aldrich) was used at a concentration of 100 nM, and CTLA4-Ig (Abatacept, Bristol-Myers Squibb) was used at a concentration of 10 μg/ml. Agonist anti-CD28 Ab was used at 1.0 μg/ml (CD28.2; eBioscience). […]
(§2) Proliferation and cell division assays. […] Filters were wetted with Betaplate Scintillation fluid (PerkinElmer) and counts per minute read on a 1205 Betaplate Liquid Scintillation Counter (Wallac). […]

[2] = test system: Cyclin D3; assay: Cyclin D3 immunoblot, human naive CD4 T cells; conditions: 48 h stimulation (anti-CD3/APC for CTLA4-Ig; anti-CD3/28 for rapamycin)
Protocol: as §1, with “eBioscience). Anti-IL-2 Ab (5334; eBioscience) was used at a concentration of 10 μg/ml. Recombinant human IL-2 (PeproTech) was used at a concentration of 10 ng/ml.” for “eBioscience).”

[3] = test system: STAT5 phosphorylation (Tyr694/699); assay: Phospho-STAT5 immunoblot, human naive CD4 T cells; conditions: 48 h stimulation (anti-CD3/APC for CTLA4-Ig; anti-CD3/28 for rapamycin)
Protocol: as §1, with “eBioscience). Anti-IL-2 Ab (5334; eBioscience) was used at a concentration of 10 μg/ml. Recombinant human IL-2 (PeproTech) was used at a concentration of 10 ng/ml.” for “eBioscience).”

[4] = test system: Akt phosphorylation (Ser473); assay: Phospho-Akt immunoblot, human naive CD4 T cells; conditions: 48 h stimulation (anti-CD3/APC for CTLA4-Ig; anti-CD3/28 for rapamycin)
Protocol: as §1, with “eBioscience). Anti-IL-2 Ab (5334; eBioscience) was used at a concentration of 10 μg/ml. Recombinant human IL-2 (PeproTech) was used at a concentration of 10 ng/ml.” for “eBioscience).”

[5] = test system: Kip1/p27; assay: Kip1/p27 immunoblot, human naive CD4 T cells; conditions: 48 h stimulation (anti-CD3/APC for CTLA4-Ig; anti-CD3/28 for rapamycin)
Protocol: as §1, with “eBioscience). Anti-IL-2 Ab (5334; eBioscience) was used at a concentration of 10 μg/ml. Recombinant human IL-2 (PeproTech) was used at a concentration of 10 ng/ml.” for “eBioscience).”

[6] = test system: mTOR; assay: mTOR activity by phospho-S6K1 and phospho-4E-BP1 immunoblots, human naive CD4 T cells; conditions: 48 h stimulation (anti-CD3/APC for CTLA4-Ig; anti-CD3/28 for rapamycin)
[7] = test system: Otub1; assay: Otub1 immunoblot, human naive CD4 T cells; conditions: 48 h stimulation (anti-CD3/APC for CTLA4-Ig; anti-CD3/28 for rapamycin)
Protocol: as §1, with “eBioscience). Anti-IL-2 Ab (5334; eBioscience) was used at a concentration of 10 μg/ml. Recombinant human IL-2 (PeproTech) was used at a concentration of 10 ng/ml.” for “eBioscience).”

[8] = test system: GRAIL; assay: GRAIL immunoblot, human naive CD4 T cells; conditions: 48 h stimulation (anti-CD3/APC for CTLA4-Ig; anti-CD3/28 for rapamycin)
Protocol: as §1, with “eBioscience). Anti-IL-2 Ab (5334; eBioscience) was used at a concentration of 10 μg/ml. Recombinant human IL-2 (PeproTech) was used at a concentration of 10 ng/ml.” for “eBioscience).”

[9] = test system: mouse naive CD4 T cells; assay: CFSE cell division assay of mouse naive CD4 T cells; conditions: anti-CD3/28 stimulation, CFSE profiles after 3 days
Text: Isolation and stimulation of mouse CD4 T cells. Spleen and lymph nodes were harvested from naive mice and homogenized through a strainer. RBC were lysed from the suspension using red blood cell lysing buffer (Sigma-Aldrich). Lymphocytes were isolated by density centrifugation using Lympholyte-M (Cedarlane Laboratories). CD4+ T cells were sorted via negative selection using an AutoMACS sorter (Miltenyi Biotec). BALB/c CD4+ T cells (5×103) were stimulated in 96-well U-bottom plates with equal numbers of polystyrene latex beads (Interfacial Dynamics) coated with 1.0 μg/ml anti-CD3 (145-2C11; eBioscience) and 0.5 μg/ml anti-CD28 (37.51; eBioscience). For DO11 T cells, 5×10^3 DO11 CD4+ T cells were stimulated in 96-well U-bottom plates with 104 APC and 50 ng/ml peptide OVA323-339 (pOVA). Rapamycin (Sigma-Aldrich) was used at a concentration of 100 nM. CTLA4-Ig (Abatacept; Bristol-Myers Squibb) was used at a concentration of 10 μg/ml. […]
as §2
Shown in FIG. 12A, naïve CD4 T cells were labeled with CFSE, a dye that dilutes out with successive cell divisions. The naïve CD4 T cells were stimulated with anti-CD3/28 and the indicated drug(s) and CFSE profiles assessed after 3 days. […]

Substance	proliferation when added to CTLA4-Ig containing cultures ([1]; anti-CD3/APC stimulation, CTLA4-Ig present, agonist anti-CD28 Ab or exogenous IL-2 added)	Cyclin D3 level [2]	phosphorylation of STAT5 [3]	phosphorylation of Akt [4]	proliferation of human naive CD4+ CD45RA+ T cells ([1]; anti-CD3/APC stimulation for CTLA4-Ig 10 μg/ml, anti-CD3/28 beads for rapamycin 100 nM)	Kip1/p27 level [5]	mTOR activity (phosphorylation of S6K1 and 4E-BP1) [6]	Otub1 protein expression [7]	GRAIL protein expression [8]	cell division / proliferation by CFSE dilution [9]
exogenous IL-2: Recombinant human IL-2 (PeproTech)	reversed the inhibition of proliferation	–	–	–	–	–	–	–	–	–
CTLA4-Ig: CTLA4-Ig (Abatacept; Bristol-Myers Squibb), blocks CD28 costimulation	–	diminished cyclin D3	decrease in phosphorylation of STAT5	decreased phosphorylation of Akt	inhibited	increased Kip1/p27	down-regulated	blocked Otub1 expression	sustained GRAIL expression	inhibition of proliferation
